Like-named read-outs stand apart in the source and are kept apart here. Marks after values point to notes of the source that are not given here.
Key:
DRB1*0301 = DRB1*0301 (Homo sapiens, UniProt P01903+P01911, A100K/A102G/A103R/A169T/F55Y/I96L/K41T/L162R/M171V/P40S/Q125H/Q178H/Q39Y/R42S/S66N/T106N/T262R/W38E/Y61H); assay: biochemical; assay type: binding
DRB1*0401 = DRB1*0401 (Homo sapiens, UniProt P01903+P01911, A100K/A169T/F76Y/I96L/K127E/L162R/M171V/N62H/P40V/Q125Y/R42H/S133A/S149N/S66Y/V115G/V209L/W38E); assay: biochemical; assay type: binding
DRB1*0404 = DRB1*0404 (Homo sapiens, UniProt P01903+P01911, A100R/A169T/F76Y/I96L/K127E/L162R/M171V/N62H/P40V/Q125Y/R42H/S133A/S149N/S66Y/V209L/W38E); assay: biochemical; assay type: binding
DRB1*0405 = DRB1*0405 (Homo sapiens, UniProt P01903+P01911, A100R/A169T/D86S/F76Y/I96L/K127E/L162R/M171V/N62H/P40V/Q125Y/R42H/S133A/S149N/S66Y/V115G/V209L/W38E); assay: biochemical; assay type: binding
DRB1*0701 = DRB1*0701 (Homo sapiens, UniProt P01903+P01911, A100R/A102G/A103Q/D57E/D86V/E43K/F76Y/K127E/L162R/M171V/P40G/Q125H/Q99D/R33Q/R42Y/R54Q/S133A/S66F/T210M/V115G/Y107V/Y59L/Y89S); assay: biochemical; assay type: binding
DRB1*0802 = DRB1*0802 (Homo sapiens, UniProt P01903+P01911, A100R/A103L/A169T/F76Y/H45Y/I96F/K41T/L162R/M171V/P40S/Q125H/Q178H/Q39Y/Q99D/R218S/R42G/S66Y/V115G/W38E); assay: biochemical; assay type: binding
DRB1*0901 = DRB1*0901 (Homo sapiens, UniProt P01903+P01911, A100R/A103E/D57H/D86V/F55Y/F60I/F76Y/I96F/K127E/L162R/M171V/P40D/Q125H/Q99R/R33Q/R42F/S133A/S66N/T210M/V115G/W38K/Y107V/Y59G/Y89S); assay: biochemical; assay type: binding
DRB1*1101 = DRB1*1101 (Homo sapiens, UniProt P01903+P01911, A100R/A169T/A87E/I96F/K41T/L162R/M171V/P40S/Q125H/Q178H/Q39Y/Q99D/R42S/S66Y/T262R/V115G/W38E); assay: biochemical; assay type: binding
DRB1*1302 = DRB1*1302 (Homo sapiens, UniProt P01903+P01911, A100E/A169T/K41T/L162R/M171V/P40S/Q125H/Q178H/Q39Y/Q99D/R42S/S66N/T262R/V115G/W38E/Y61H); assay: biochemical; assay type: binding
DRB1*1501 = DRB1*1501 (Homo sapiens, UniProt P01903+P01911); assay: biochemical; assay type: binding
DRB3*0101 = DRB3*0101 (Homo sapiens, UniProt P01903+P79483); assay: biochemical; assay type: binding
DRB1*0101 = DRB1*0101 (Homo sapiens, UniProt P01903+P01911, A100R/D57E/F55L/F60I/F76Y/I96L/L162R/M171V/P40L/Q125E/R42F/V115G/Y59C); assay: biochemical; assay type: binding
DRB4*0101 = DRB4*0101 (Homo sapiens, UniProt P01903+P13762, G164S); assay: biochemical; assay type: binding
DRB5*0101 = DRB5*0101 (Homo sapiens, UniProt P01903+Q30154); assay: biochemical; assay type: binding; conditions: read-out: Binding Affinity (nM) DRB5*0101
[1] = test system: HLA-DR4 (HLA-DRA1*0101; -DRB1*0401) transgenic mice; conditions: for Transgenic mice DR4 (ELISPOT): representative IFN-γ ELISPOT data, CD8-depleted splenocytes of HLA-DR4 TgM
[2] = test system: HLA transgenic mice (A02, A24, B07, DR2, DR3 and DR4); assay: Immunogenicity screen in six HLA transgenic mice strains (summary); assay type: in vivo; conditions: IFN-γ ELISPOT in six TgM strains; Negative = none
[3] = test system: HLA of the TgM (A02, A24, B07, DR2, DR3, DR4); assay: HLA binding assays, summary of HLA affinity confirmed; design: species or system human; conditions: ND: non-determined
[4] = read-out: Binding Affinity (nM) DRB3*0101
[5] = read-out: Binding Affinity (nM) DRB1*0405
[6] = read-out: Binding Affinity (nM) DRB4*0101

Amino acid sequences for entries named in this document (tags omitted). Residues count along the entry.
UniProt P79483, 30-266: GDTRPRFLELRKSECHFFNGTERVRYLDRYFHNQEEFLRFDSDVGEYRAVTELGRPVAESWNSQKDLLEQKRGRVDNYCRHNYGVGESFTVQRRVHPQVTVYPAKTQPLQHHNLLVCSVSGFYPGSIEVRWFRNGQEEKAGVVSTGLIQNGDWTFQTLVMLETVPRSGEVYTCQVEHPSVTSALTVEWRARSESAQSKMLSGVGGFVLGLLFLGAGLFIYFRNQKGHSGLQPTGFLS
UniProt Q30154, 30-266: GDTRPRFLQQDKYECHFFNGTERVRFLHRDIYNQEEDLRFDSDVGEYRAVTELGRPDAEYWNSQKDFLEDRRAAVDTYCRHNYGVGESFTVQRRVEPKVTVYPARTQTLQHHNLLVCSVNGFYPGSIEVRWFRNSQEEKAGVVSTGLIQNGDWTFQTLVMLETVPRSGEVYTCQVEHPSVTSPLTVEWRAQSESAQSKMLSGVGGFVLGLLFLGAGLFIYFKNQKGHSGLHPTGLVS

CC[C@H](C)[C@H](NC(=O)[C@@H]1CCCN1C(=O)[C@H](CCC(=O)O)NC(=O)[C@H](CC(C)C)NC(=O)[C@@H](N)CS)C(=O)N[C@@H](CCC(=O)O)C(=O)NCC(=O)N[C@@H](CCCCN)C(=O)N[C@H](C(=O)N[C@H](C(=O)N[C@@H](CCC(N)=O)C(=O)N[C@@H](Cc1ccc(O)cc1)C(=O)N[C@@H](CCC(=O)O)C(=O)N[C@@H](CC(N)=O)C(=O)N[C@@H](CC(C)C)C(=O)O)C(C)C)C(C)C [Envelope 121-135]
IC50 (DRB1*0301): 2.97 µM
IC50 (DRB1*0401; read-out: Binding Affinity (nM) DRB1*0401): > 20000 nM
IC50 (DRB1*0404): 6150 nM
IC50 (DRB1*0405): 7140 nM
IC50 (DRB1*0701): 4070 nM
IC50 (DRB1*0802): 2750 nM
IC50 (DRB1*0901): 3830 nM
IC50 (DRB1*1101): 7880 nM
IC50 (DRB1*1302): 1280 nM
IC50 (DRB1*1501): 404 nM
IC50 (DRB3*0101; [4]): > 20000 nM

CC[C@H](C)[C@H](NC(=O)[C@@H](NC(=O)[C@H](CC(C)C)NC(=O)[C@H](CC(N)=O)NC(=O)[C@H](CCCNC(=N)N)NC(=O)[C@H](CCCCN)NC(=O)[C@H](CCCCN)NC(=O)[C@H](Cc1ccccc1)NC(=O)[C@H](CCSC)NC(=O)[C@H](CCC(=O)O)NC(=O)[C@H](CCC(=O)O)NC(=O)[C@H](CCC(=O)O)NC(=O)[C@H](CC(C)C)NC(=O)[C@H](CCC(=O)O)NC(=O)[C@@H]1CCCN1)[C@@H](C)O)C(=O)O [NS3 177-191]
IC50 (DRB1*0101): 6.35 µM
IC50 (DRB1*0301): 1.87 µM
IC50 (DRB1*0401): 7070 nM
IC50 (DRB1*0404; read-out: Binding Affinity (nM) DRB1*0404): > 20000 nM
IC50 (DRB1*0405; [5]): > 20000 nM
IC50 (DRB1*0701; read-out: Binding Affinity (nM) DRB1*0701): > 20000 nM
IC50 (DRB1*0802; read-out: Binding Affinity (nM) DRB1*0802): > 20000 nM
IC50 (DRB1*0901): 14800 nM
IC50 (DRB1*1101): 11900 nM
IC50 (DRB1*1302): 13800 nM
IC50 (DRB1*1501): 17000 nM
IC50 (DRB4*0101; [6]): > 20000 nM
IC50 (DRB5*0101): > 20000 nM

CC[C@H](C)[C@H](NC(=O)[C@H](CO)NC(=O)[C@@H]1CCCN1C(=O)[C@@H](NC(=O)[C@H](Cc1ccccc1)NC(=O)[C@H](Cc1c[nH]c2ccccc12)NC(=O)[C@@H](NC(=O)[C@@H](NC(=O)[C@H](CCCCN)NC(=O)CN)[C@@H](C)O)C(C)C)C(C)C)C(=O)N[C@@H](CCCCN)C(=O)N[C@@H](C)C(=O)NCC(=O)N[C@@H](CC(N)=O)C(=O)N[C@@H](CC(=O)O)C(=O)O [NS3 357-371]
IC50 (DRB1*0101): 0.016 µM
IC50 (DRB1*0301): 0.436 µM
IC50 (DRB1*0401): 41 nM
IC50 (DRB1*0901): 100 nM
IC50 (DRB1*1101): 38 nM
IC50 (DRB1*1501): 16 nM
IC50 (DRB3*0101): 711 nM
IC50 (DRB4*0101): 759 nM

CC[C@H](C)[C@H](NC(=O)[C@H](Cc1ccc(O)cc1)NC(=O)[C@H](CCC(N)=O)NC(=O)[C@H](CC(=O)O)NC(=O)[C@H](CC(N)=O)NC(=O)[C@H](CCC(=O)O)NC(=O)[C@H](CCCCN)NC(=O)[C@H](CCC(N)=O)NC(=O)[C@@H]1CCCN1C(=O)[C@@H](N)CC(N)=O)C(=O)N[C@@H](Cc1ccccc1)C(=O)N[C@H](C(=O)NCC(=O)N[C@@H](CCC(N)=O)C(=O)N1CCC[C@H]1C(=O)O)[C@@H](C)O [NS3 465-479]
IC50 (DRB1*0101): 6.75 µM
IC50 (DRB1*0301): 15.7 µM
IC50 (DRB1*0401): 11800 nM
IC50 (DRB1*0404): 9800 nM
IC50 (DRB1*0405; [5]): > 20000 nM
IC50 (DRB1*0701): 17000 nM
IC50 (DRB1*0802): 9410 nM
IC50 (DRB1*0901; competitive inhibition of radiolabeled standard peptide, DRB1*0901, read-out: Binding Affinity (nM) DRB1*0901): > 20000 nM
IC50 (DRB1*1101; read-out: Binding Affinity (nM) DRB1*1101): > 20000 nM
IC50 (DRB1*1302; competitive inhibition of radiolabeled standard peptide, DRB1*1302, read-out: Binding Affinity (nM) DRB1*1302): 18100 nM
IC50 (DRB1*1501; read-out: Binding Affinity (nM) DRB1*1501): > 20000 nM
IC50 (DRB4*0101; [6]): > 20000 nM
IC50 (DRB5*0101): > 20000 nM

CSCC[C@H](NC(=O)[C@H](C)NC(=O)[C@H](CCSC)NC(=O)[C@H](CCC(N)=O)NC(=O)[C@@H](NC(=O)[C@@H](NC(=O)[C@H](CCSC)NC(=O)[C@@H]1CCCN1C(=O)[C@@H](NC(=O)[C@@H](NC(=O)[C@H](CC(=O)O)NC(=O)[C@H](Cc1c[nH]c2ccccc12)NC(=O)[C@@H]1CCCN1)C(C)C)C(C)C)C(C)C)[C@@H](C)O)C(=O)N[C@H](C(=O)N[C@@H](CC(=O)O)C(=O)N[C@H](C(=O)N[C@H](C(=O)O)[C@@H](C)O)[C@@H](C)O)[C@@H](C)O [NS5 330-346]
IC50 (DRB1*0701): 2460 nM
IC50 (DRB1*0802): 4 nM
IC50 (DRB3*0101; [4]): > 20000 nM

EAAAIFMTATPPGTA [NS3_309–323]
Transgenic mice DR4 (ELISPOT) [1]: 354+40 SFC per 1 million cells

EEMFKKRNLTIMDLH [NS3_181–195, DENV3 NS3 15-mer overlapping library peptide]
TGM (HLA transgenic mice in which the peptide was immunogenic) [2]: DR2
Binding assay (HLA to which affinity was found) [3]: DR2

IRYQTTATKSEHTGR [NS3_241–255, DENV3 NS3 15-mer overlapping library peptide]
TGM (HLA transgenic mice in which the peptide was immunogenic) [2]: DR4
Binding assay (HLA to which affinity was found) [3]: DR4

IVSSVNMVSRLLLNRFT [NS5 227-243]
Transgenic mice DR4/IE ([1]; IFN-γ ELISPOT of splenocytes from peptide-immunized HLA-DR4 transgenic mice, value printed as mean+spread, '-' = no response listed): 128+16

KGLPIRYQTTATKSE [NS3_237–251, DENV3 NS3 15-mer overlapping library peptide]
TGM (HLA transgenic mice in which the peptide was immunogenic) [2]: DR4
Binding assay (HLA to which affinity was found) [3]: DR2, DR4

KIPGGAMYADDTAGWDT [NS5_523–539]
Transgenic mice DR4 (ELISPOT) [1]: 44+15 SFC per 1 million cells

NEWITDFAGKTVWFV [NS3_349–363, DENV3 NS3 15-mer overlapping library peptide]
TGM (HLA transgenic mice in which the peptide was immunogenic) [2]: DR2
specificity for DR2 molecule by binding assay (DRB1*1501): confirmed
Binding assay (HLA to which affinity was found) [3]: DR2

NSYSGVEGEGLHKLGYI [NS5_501–517]
Transgenic mice DR4 (ELISPOT) [1]: 50+10 SFC per 1 million cells

PEVVVLGSQEGAMHT [Envelope 246-260]
Transgenic mice DR4/IE ([1]; IFN-γ ELISPOT of splenocytes, HLA-DR4/IE transgenic mice, printed as value+spread, '-' = no value, distinct from ND): 25+0

PWDVVPMVTQMAMTDTT [NS5_330–346, DENV3 NS5 17-mer overlapping library peptide]
TGM (HLA transgenic mice in which the peptide was immunogenic) [2]: DR4
Binding assay (HLA to which affinity was found) [3]: DR4

SPIINREGKVVGLYG [NS3_137–151, DENV3 NS3 15-mer overlapping library peptide]
TGM (HLA transgenic mice in which the peptide was immunogenic) [2]: DR3
Binding assay (HLA to which affinity was found) [3]: DR2,DR3

TDFAGKTVWFVPSIK [NS3_353–367, DENV3 NS3 15-mer overlapping library peptide]
TGM (HLA transgenic mice in which the peptide was immunogenic) [2]: DR2*
Binding assay (HLA to which affinity was found) [3]: Negative

WNSGNEWITDFAGKT [NS3_345–359, DENV3 NS3 15-mer overlapping library peptide]
TGM (HLA transgenic mice in which the peptide was immunogenic) [2]: DR2*
Binding assay (HLA to which affinity was found) [3]: Negative
